# Test results reported in patent publication US20230295119A1, “SUBSTITUTED PYRIDINES FOR THE TREATMENT OF INFLAMMATORY DISEASES” (GOSSAMER BIO SERVICES, INC., priority 2020, published 2023).
# Amino acid sequences for entries named in this document (tags omitted). Residues count along the entry.
# UniProt P29597, 589-875: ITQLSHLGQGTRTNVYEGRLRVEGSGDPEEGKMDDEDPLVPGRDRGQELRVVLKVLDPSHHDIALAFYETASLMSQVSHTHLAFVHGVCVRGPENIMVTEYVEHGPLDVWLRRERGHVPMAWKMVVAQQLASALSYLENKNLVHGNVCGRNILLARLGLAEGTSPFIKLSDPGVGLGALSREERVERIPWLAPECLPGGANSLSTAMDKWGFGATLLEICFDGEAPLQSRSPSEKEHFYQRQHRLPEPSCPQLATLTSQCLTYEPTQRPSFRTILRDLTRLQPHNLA
# Molecular target: TYK2 JH2 domain (Homo sapiens (Human), UniProt P29597)
# Assay: TYK2 JH2 NanoBRET assay
# Format: binding
# Conditions: HEK293T cells, Table 19
# Procedure: HEK293T cells were transfected with NanoLuc-TYK2 JH2 Fusion Vector (Promega, customized) using Trans-IT reagent (Mirus, #MIR2700) and incubated for overnight in 37° C. incubator. […] Add 85 µL of cell suspension into white, polypropylene, 96-well plates (Corning, #3600). 90 µL of cells were used for no tracer control samples. 5 µL of diluted NanoBRET K10 tracer (Promega, #CS1810C122) were added to cells to a final concentration of 0.5 µM. Test compounds were diluted into DMSO, and then phenol-free opti-MEM to 10X of final concentration. 10 µL of diluted compounds were added into each well. The cells were incubated with test compound and tracer for 2 hours. 3XNanoBRET® Nano-Glo® Substrate and Extracellular NanoLuc® Inhibitor mixture were prepared and 50 µL of the mixture were added into the wells and mixed. […] NanoBRET signal was determined by using the ratio of acceptor signal and donor signal.
smiles,measurement,value
COc1c(Nc2cc(NC(=O)C3CC3)ncc2C(=O)C2CC2)cccc1-c1ncn(C)n1 [Compound 1C],IC50,< 5 nM
